Values quoted from earlier work, collected in patent US20150313892A1, “PHARMACEUTICAL COMPOSITIONS FOR TREATING PAIN ASSOCIATED WITH DYSMENORRHEA” (priority 2014, published 2015).
pKi: −log10 of the molar value.

Amino acid sequences for entries named in this document (tags omitted).
UniProt P35372, whole entry: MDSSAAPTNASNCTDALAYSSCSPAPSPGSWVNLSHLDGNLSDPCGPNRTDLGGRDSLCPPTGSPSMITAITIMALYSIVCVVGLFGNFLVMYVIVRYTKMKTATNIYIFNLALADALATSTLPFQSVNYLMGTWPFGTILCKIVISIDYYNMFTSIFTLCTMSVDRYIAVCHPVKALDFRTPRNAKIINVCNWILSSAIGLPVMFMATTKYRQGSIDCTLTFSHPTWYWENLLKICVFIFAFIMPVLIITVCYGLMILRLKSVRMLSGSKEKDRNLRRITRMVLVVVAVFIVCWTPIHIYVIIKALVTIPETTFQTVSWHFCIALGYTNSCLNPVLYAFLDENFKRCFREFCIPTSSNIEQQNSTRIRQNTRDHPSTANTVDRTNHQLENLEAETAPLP

Columns and labels:
μ-opioid = μ-opioid (Homo sapiens, UniProt P35372); settings: read-out: Binding Constant Ki, μ-opioid; cited from earlier work
[1] = versus tramadol; cited from earlier work

O-desmethyltramadol [(±) M1]
pKi (μ-opioid): 7.92
analgesic potency relative to the parent drug [1]: at least twice
